The nature of series [1]: Solubility of the dyes. Format: physicochemical. The procedure: In the first part of the in-vitro skin penetration study, the color application included the use of dyes D&C Green no. 6, FD&C Blue no. 1, FD&C Yellow no. 6, and FD&C Red no. 40. All chemicals used were analytical grade, obtained from standard supply houses (Sigma, VWR, etc.). The dyes were dissolve in ddw and the solution conductivity was measured using a dedicated apparatus. The target conductivity was defined as a minimum of 1 mAmp/cm^3 current at 3 volts. If such conductivity was not attained, the dye concentration and/or the voltage were increased. See Table 1 for the solubility and conductivity of the dyes.

Series [2] can be described thus: Solubility of the dyes. Particulars: 20 mg/ml in ethanol + 30% ddw. The class given is physicochemical.

The structures appear in SMILES notation.

Consider `O=S(=O)([O-])c1ccc(N=Nc2c(O)ccc3cc(S(=O)(=O)[O-])ccc23)cc1.[Na+].[Na+]` [Yellow no. 6, FD&C Yellow no. 6], for which the Solubility entry is reported as “Soluble” in the series “Solubility of the dyes [1]” (20 mg/ml in water), “(Poor solubility)” in the series “Solubility of the dyes [1]” (25 mg/ml in ddw with 30% ethanol) and “(Was slightly insoluble)” in the series “Solubility of the dyes [1]” (60 mg/ml in ddw). Besides, in the series “Solubility of the dyes [2]”, the “Solubility (achieved by heating the solution)” value is listed as “ddw (Solubility was achieved”.
